# Measurements taken from PubChem BioAssay AID504462 (Sanford-Burnham Center for Chemical Genomics, 2011).
# Amino acid sequences for entries named in this document (tags omitted).
# UniProt Q9Y4P1, whole entry: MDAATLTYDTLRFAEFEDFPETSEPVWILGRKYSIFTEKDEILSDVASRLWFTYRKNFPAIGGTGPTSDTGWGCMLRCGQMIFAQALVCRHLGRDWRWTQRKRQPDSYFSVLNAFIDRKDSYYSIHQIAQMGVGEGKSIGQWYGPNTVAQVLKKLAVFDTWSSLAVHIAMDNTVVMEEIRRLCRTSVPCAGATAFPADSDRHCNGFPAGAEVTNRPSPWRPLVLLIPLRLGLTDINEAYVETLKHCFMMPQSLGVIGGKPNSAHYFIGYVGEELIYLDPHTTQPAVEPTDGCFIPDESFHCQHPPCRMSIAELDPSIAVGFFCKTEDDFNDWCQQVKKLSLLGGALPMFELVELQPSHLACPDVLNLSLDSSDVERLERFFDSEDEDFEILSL
# The list shows a part of the results, in another mix than the full data. Calls of active or inactive are those of the source. Cut-off read from the data, not from the text of the source: active = inhibition above about 40%; inactive = the rest.
# Biological target: Cysteine protease ATG4B (Homo sapiens) (UniProt Q9Y4P1)
# Test: blockers of ATG4B cysteine protease activity – biochemical, fluorescence, uHTS, primary screen (AID 504462)
# Details: ATG4B cleavage of LC3-PLA2, NBD-HPC fluorescence, 1 h; at 8.33 µM; active compounds read high
row,SMILES,inhibition
1,CN1CCC(Nc2ccc(F)c(Cl)c2)CC1,inactive: -6.11%
2,CCOc1ncccc1C(=O)NCC1(N2CCOCC2)CCCCC1,inactive: 3.67%
3,CCCOc1ccc(C(=O)NCC2(N(C)C)CCCCC2)cc1,inactive: 1.19%
4,O=C(O)C1(Nc2ccccc2)CCN(Cc2ccccc2)CC1,inactive: -4.74%
5,CC(C)(C)OC(=O)N1CCC(Nc2ccccc2)CC1,inactive: -3.86%
6,CCC(CO)(C(=O)OC1CN2CCC1CC2)c1ccccc1 (stereo not given),inactive: 2.99%
7,COc1cc(OC)cc(C(=O)NCC2(N3CCOCC3)CCCCC2)c1,inactive: -5.05%
8,COc1cccc(C(=O)N(c2cc(C)cc(C)c2)C2CCN(C(=O)OC(C)(C)C)CC2)c1,inactive: -8.42%
9,CN1CCC(Nc2ccc(Cl)cc2)CC1,inactive: -2.71%
10,COc1cc(OC)cc(C(=O)NCC2(N3CCCCC3)CCCCC2)c1,inactive: -10.6%
11,CC(=O)N(c1ccccc1)C1CCNCC1,inactive: 1.97%
12,Cc1ccc(NC2(C#N)CCN(Cc3ccccc3)CC2)cc1,inactive: -1.3%
13,Fc1ccccc1NC1CCN(Cc2ccccc2)CC1,inactive: -1.77%
14,Cc1ccc(C(=O)NCC2(N3CCCCC3)CCCCC2)o1,inactive: -2.04%
15,CCN1CCC(Nc2cccc(F)c2)CC1,inactive: 2.34%
16,Cc1ccccc1NC1(C#N)CCN(Cc2ccccc2)CC1,inactive: -2.4%
17,CN(C)c1ccc(C(=O)NCC2(N3CCCCC3)CCCCC2)cc1,inactive: -1.85%
18,Cn1c(=O)[nH]cc(N(CCCl)CCCl)c1=O,inactive: -8.53%
19,O=C(NCC1(N2CCCCC2)CCCCC1)c1ccco1,inactive: 2.08%
20,CC(C)(C)OC(=O)N1CCC(N(C(=O)c2ccccc2)c2ccc(Cl)cc2)CC1,inactive: 39.6%
21,N#Cc1ccc(C(=O)NCC2(N3CCCCC3)CCCCC2)cc1,inactive: 2.19%
22,CCCN1CCC(Nc2cc(OC)cc(OC)c2)CC1,inactive: -3.07%
23,Cc1cc(N(CCCl)CCCl)ccc1C=O,inactive: -4.57%
24,c1ccc(CN2CCC(Nc3ccccc3)CC2)cc1,inactive: -4.92%
25,CN(C)C1(CNC(=O)c2cccc(C#N)c2)CCCCC1,inactive: -1.62%

row,SMILES,inhibition
1,O=C(NCC1(N2CCOCC2)CCCCC1)c1cc(Br)ccc1Cl,inactive: -4.76%
2,COc1cc(C(=O)NCC2(N3CCOCC3)CCCCC2)cc(OC)c1C,inactive: -5.11%
3,COc1ccc(C(=O)NCC2(N3CCOCC3)CCCCC2)cc1OC,inactive: 0.89%
4,N/C(=N\O)c1c(N)no[n+]1[O-],inactive: -2.91%
5,CCOC(=O)N1CCC(Nc2ccc(C)cc2)CC1,inactive: 5.31%
6,CCc1cc(C(=O)NCC2(N3CCCCC3)CCCCC2)sc1C,inactive: -7.97%
7,O=C(OC1CN2CCC1CC2)C1c2ccccc2C=Cc2ccccc21 (stereo not given),inactive: 1.51%
8,CN(C)c1cccc(C(=O)NCC2(N3CCCCC3)CCCCC2)c1,inactive: -21.5%
9,COc1ccc(CN(CCCl)CCCl)cc1Cl,inactive: -2.66%
10,CC(C)c1ccc(NC2CCN(C(=O)OC(C)(C)C)CC2)cc1,inactive: -0.17%
11,O=C(NCC1(N2CCOCC2)CCCCC1)c1cc(F)c(F)cc1Cl,inactive: -8%
12,COc1cc(OC)c(C(=O)NCC2(N(C)C)CCCCC2)cc1OC,inactive: -2.58%
13,CN1CCC(Nc2cccc(F)c2)CC1,inactive: -0.52%
14,O=C(NCC1(N2CCCCC2)CCCCC1)c1cncc(Br)c1,inactive: -4.76%
15,CCCOc1ccc(C(=O)NCC2(N(C)C)CCCCC2)cc1OC,inactive: -7.63%
16,O=C(NCC1(N2CCCCC2)CCCCC1)c1ccc(OC(F)F)cc1,inactive: -4.27%
17,CSc1ccc(C(=O)NCC2(N3CCOCC3)CCCCC2)cc1,inactive: -2.79%
18,O=C(NCC1(N2CCCCC2)CCCCC1)c1cccc([N+](=O)[O-])c1,inactive: -0.8%
19,N#CC1(Nc2ccccc2)CCN(CCc2ccccc2)CC1,inactive: -8.08%
20,CCN1CCC(Nc2ccc(Cl)cc2)CC1,inactive: -2.45%
21,O=C(NCC1(N2CCCCC2)CCCCC1)c1cccc(C(F)(F)F)c1,inactive: -6.83%
22,CN1CCN(CCOC(=O)C(O)(c2ccccc2)c2ccccc2)CC1,inactive: 2.99%
23,COc1ccc(NC2CCN(C(=O)OC(C)(C)C)CC2)cc1,inactive: -6.32%
24,CC(C)c1ccc(C(=O)NCC2(N3CCOCC3)CCCCC2)cc1,inactive: -13.6%
25,COc1cc(C(=O)NCC2(N3CCCCC3)CCCCC2)ccc1OC(F)F,inactive: -4.35%

row,SMILES,inhibition
1,O=C(NCC1(N2CCOCC2)CCCCC1)c1cc(=O)[nH]c2ccccc12,inactive: -3.33%
2,CCOc1ccc(C)cc1CN(CCCl)CCCl,inactive: -1.8%
3,O=C1CCN(Cc2ccccc2)CC1,inactive: -25.7%
4,COc1ccc(NC2CCN(CCc3ccccc3)CC2)c(OC)c1,inactive: -4.77%
5,CCOC(=O)N1CCC(Nc2ccc(F)cc2)CC1,inactive: 1.56%
6,O=P1(N(CCCl)CCCl)SCCCS1,inactive: -5.13%
7,CCCCOc1ccc(C(=O)NCC2(N3CCOCC3)CCCCC2)cc1,inactive: 3.7%
8,O=C(NCC1(N2CCCCC2)CCCCC1)c1ccc(F)cc1,inactive: -7.56%
9,CCOC(=O)N1CCC(Nc2cccc(C)c2)CC1,inactive: -4.39%
10,COc1cc(C(=O)NCC2(N(C)C)CCCCC2)ccc1OC(F)F,inactive: -1.55%
11,O=C(NCC1(N2CCCCC2)CCCCC1)c1cccs1,inactive: -2.24%
12,O=C(NCC1(N2CCCCC2)CCCCC1)c1ccc(=O)[nH]c1,inactive: 2.82%
13,COc1ccc(C(=O)NCC2(N3CCCCC3)CCCCC2)c(OC)c1OC,inactive: 1.26%
14,CC(C)(C)OC(=O)N1CCC(N(C(=O)c2ccccc2)c2ccc(F)cc2)CC1,inactive: 0.26%
15,COc1ccc(C(=O)NCC2(N3CCCCC3)CCCCC2)cc1,inactive: -6.88%
16,Cc1cccc(NC2(C#N)CCN(Cc3ccccc3)CC2)c1,inactive: -2.4%
17,CSc1ccccc1C(=O)NCC1(N2CCCCC2)CCCCC1,inactive: -3.03%
18,O=C(NCC1(N2CCOCC2)CCCCC1)c1cc2ccccc2o1,inactive: -5.18%
19,Cc1cc(C)cc(N(C(=O)c2ccccc2)C2CCN(C(=O)OC(C)(C)C)CC2)c1,inactive: 6.69%
20,O=C(NCC1(N2CCCCC2)CCCCC1)c1ccc(Cl)nc1,inactive: 2.02%
21,CCOC(=O)N1CCC(Nc2ccc(OC)cc2)CC1,inactive: -7.18%
22,COc1ccc(Cl)cc1C(=O)NCC1(N2CCOCC2)CCCCC1,inactive: 0.37%
23,N#CC1(Nc2ccccc2)CCN(Cc2ccccc2)CC1,inactive: -4.57%
24,O=C(NCC1(N2CCCCC2)CCCCC1)c1ccc(Cl)s1,inactive: -10.7%
25,O=C(OC1CN2CCC1CC2)C1c2ccccc2Oc2ccccc21 (stereo not given),inactive: -3.77%
